Results: patent US20220332848A1 (published 2022)

Protein sequences, listed by entry. Tags and fused reporters are not part of them. Residues count along the entry.
UniProt Q08722, 19-323: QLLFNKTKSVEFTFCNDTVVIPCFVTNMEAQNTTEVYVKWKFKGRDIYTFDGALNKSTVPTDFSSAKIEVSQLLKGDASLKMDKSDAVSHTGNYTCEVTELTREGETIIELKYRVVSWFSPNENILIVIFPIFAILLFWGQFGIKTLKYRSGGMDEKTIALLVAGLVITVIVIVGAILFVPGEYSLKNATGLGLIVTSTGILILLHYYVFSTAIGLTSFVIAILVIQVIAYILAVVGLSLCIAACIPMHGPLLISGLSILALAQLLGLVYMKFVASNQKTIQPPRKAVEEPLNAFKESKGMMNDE

Molecular target: CD47 (UniProt Q08722 19-323)
Experiment: FACS

EC50: 2.46 nM
B1: bispecific antibody CTLA4-G9-LN (bispecific antibody)
light: EVQLVESGGGLVQPGGSLRLSCAASGYTYSRHCLGWFRQAPGKGREAVSTIDSDGSTSYADSVKGRFTISRDNAKNTLYLQMNSLRPEDTAVYYCAIGPNPRYCSGAPNTRGAEHYFGYWGQGTLVTVSSGGGGSGGGSEIVLTQSPATLSLSPGERATLSCRASENVGTYISWYQQKPGQAPRLLIYGASNRYTGIPARFSGSGSGTDFTLTISSLEPEDFAVYYCGESYGHLYTFGGGTKVEIKRTVAAPSVFIFPPSDEQLKSGTASVVCLLNNFYPREAKVQWKVDNALQSGNSQESVTEQDSKDSTYSLSSTLTLSKADYEKHKVYACEVTHQGLSSPVTKSFNRGEC
heavy: not shown
